Laboratory results from publication PMC2811000.

By UniProt entry, the sequences of proteins in these tests, tags left out.
UniProt P18887, whole entry: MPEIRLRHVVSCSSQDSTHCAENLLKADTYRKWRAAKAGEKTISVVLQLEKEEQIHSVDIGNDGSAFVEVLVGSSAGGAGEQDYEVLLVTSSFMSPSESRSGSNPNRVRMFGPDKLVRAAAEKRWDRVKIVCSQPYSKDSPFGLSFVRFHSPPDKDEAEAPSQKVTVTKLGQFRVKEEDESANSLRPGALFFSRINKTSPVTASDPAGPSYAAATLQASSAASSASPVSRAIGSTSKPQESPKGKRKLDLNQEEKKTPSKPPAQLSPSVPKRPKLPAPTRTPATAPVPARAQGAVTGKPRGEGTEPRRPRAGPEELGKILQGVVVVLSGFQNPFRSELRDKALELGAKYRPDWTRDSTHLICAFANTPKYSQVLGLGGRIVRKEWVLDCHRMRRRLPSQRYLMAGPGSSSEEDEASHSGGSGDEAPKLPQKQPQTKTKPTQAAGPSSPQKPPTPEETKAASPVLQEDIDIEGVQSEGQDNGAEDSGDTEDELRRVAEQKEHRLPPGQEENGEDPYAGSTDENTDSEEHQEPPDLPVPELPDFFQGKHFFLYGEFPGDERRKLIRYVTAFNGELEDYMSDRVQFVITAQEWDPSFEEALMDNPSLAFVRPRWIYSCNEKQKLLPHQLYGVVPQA

Biological target: acrylodan-labeled C-terminal catalytic kinase/phosphatase domain of PNKP (human)
Assay: other fluorescence titration

Substance: non-phosphorylated XRCC1 (from UniProt P18887 1-633) (natural protein)
- stoichiometry N: 1.1
